Reference: patent publication US20250195530A1, “POLQ INHIBITORS” (ASTRAZENECA AB, priority 2022, published 2025)

Protein sequences, listed by entry. Tags and fused reporters are not part of them. Residues count along the entry.
UniProt O75417, 1780-2590: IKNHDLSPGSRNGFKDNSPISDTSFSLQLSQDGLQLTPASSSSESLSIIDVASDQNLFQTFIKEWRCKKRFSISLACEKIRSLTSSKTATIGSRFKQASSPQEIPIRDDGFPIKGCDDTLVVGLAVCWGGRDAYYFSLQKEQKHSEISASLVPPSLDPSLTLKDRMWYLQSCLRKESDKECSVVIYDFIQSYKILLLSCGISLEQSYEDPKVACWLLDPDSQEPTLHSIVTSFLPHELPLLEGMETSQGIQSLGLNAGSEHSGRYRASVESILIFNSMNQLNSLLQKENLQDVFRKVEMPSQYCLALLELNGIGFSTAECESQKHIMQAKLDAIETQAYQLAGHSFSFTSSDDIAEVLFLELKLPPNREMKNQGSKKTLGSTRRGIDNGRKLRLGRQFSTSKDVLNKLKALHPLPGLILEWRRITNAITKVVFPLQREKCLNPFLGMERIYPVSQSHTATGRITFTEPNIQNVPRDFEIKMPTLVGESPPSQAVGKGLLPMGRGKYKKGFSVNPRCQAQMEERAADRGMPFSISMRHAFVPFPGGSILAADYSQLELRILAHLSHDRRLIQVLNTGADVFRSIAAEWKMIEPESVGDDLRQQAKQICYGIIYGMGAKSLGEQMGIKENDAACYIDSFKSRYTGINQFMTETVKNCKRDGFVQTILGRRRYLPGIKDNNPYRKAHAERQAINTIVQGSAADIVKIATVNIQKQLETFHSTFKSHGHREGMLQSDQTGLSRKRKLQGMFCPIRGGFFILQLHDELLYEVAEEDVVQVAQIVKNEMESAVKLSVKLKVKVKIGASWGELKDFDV

Molecular target: isolated polymerase domain (I1780-V2590) of DNA polymerase theta (Polθ) (Homo sapiens (Human), UniProt O75417)
Experiment: biochemical

Row | SMILES | pIC50
1 | Cc1cncc(Cn2c(-c3ccc(OCCN4CCNCC4)cc3Cl)nc3c(OC4(C)CC4)ncnc32)c1 [Example T530, 8-(2-chloro-4-(2-(piperazin-1-yl)ethoxy)phenyl)-6-(1-methylcyclopropoxy)-9-((5-methylpyridin-3-yl)methyl)-9H-purine] | 7.90
2 | COc1ccc(Cl)cc1Cn1c(-c2ccc(OCCCOC(C)(C)C(=O)O)cc2Cl)nc2c(OC3(C)CC3)ncnc21 [Example U92, 2-(3-(3-chloro-4-(9-(5-chloro-2-methoxybenzyl)-6-(1-methylcyclopropoxy)-9H-purin-8-yl)phenoxy)propoxy)-2-methylpropanoic acid] | 8.30
3 | CC(CCOc1ccc(-c2nc3c(OC4(C)CC4)ncnc3n2Cc2cccc(Cl)c2C#N)c(Cl)c1)C(=O)O (racemic) [Example U37, 4-(3-chloro-4-(9-(3-chloro-2-cyanobenzyl)-6-(1-methylcyclopropoxy)-9H-purin-8-yl)phenoxy)-2-methylbutanoic acid] | 7.70
4 | C[C@H](CCOc1ccc(-c2nc3c(OC4(C)CC4)ncnc3n2Cc2ccccc2C#N)c(Cl)c1)C(=O)O [Example T402, (R)-4-(3-chloro-4-(9-(2-cyanobenzyl)-6-(1-methylcyclopropoxy)-9H-purin-8-yl)phenoxy)-2-methylbutanoic acid] | 8.00
5 | Cc1cnc(Cn2c(-c3cccc(OCCCN4CC[C@@H](O)C4)c3Cl)nc3c(OC4(C)CC4)ncnc32)s1 [Example T392, (R)-1-(3-(2-chloro-3-(6-(1-methylcyclopropoxy)-9-((5-methylthiazol-2-yl)methyl)-9H-purin-8-yl)phenoxy)propyl)pyrrolidin-3-ol] | 8.10
6 | Cc1cc(Cl)cc(Cn2c(-c3ccc(OCCN4CCNCC4)cc3Cl)nc3c(OC4(C)CC4)ncnc32)n1 [Example T527, 8-(2-chloro-4-(2-(piperazin-1-yl)ethoxy)phenyl)-9-((4-chloro-6-methylpyridin-2-yl)methyl)-6-(1-methylcyclopropoxy)-9H-purine] | 8.30
7 | Cc1ccnc(Cn2c(-c3ccc(O[C@H]4CCNC4)cc3Cl)nc3c(OC4(C)CC4)ncnc32)c1 [Example T208, (S)-8-(2-chloro-4-(pyrrolidin-3-yloxy)phenyl)-6-(1-methylcyclopropoxy)-9-((4-methylpyridin-2-yl)methyl)-9H-purine] | 8.60
8 | CC1(Oc2ncnc3c2nc(-c2ccc(OCCO)cc2Cl)n3Cc2cc(Cl)ccn2)CC1 [Example T15, 2-(3-chloro-4-(9-((4-chloropyridin-2-yl)methyl)-6-(1-methylcyclopropoxy)-9H-purin-8-yl)phenoxy)ethan-1-ol] | 8.00
9 | Cc1ccnc(Cn2c(-c3ccc(OCCNS(C)(=O)=O)cc3Cl)nc3c(OC4(C)CC4)ncnc32)c1 [Example T144, N-(2-(3-chloro-4-(6-(1-methylcyclopropoxy)-9-((4-methylpyridin-2-yl)methyl)-9H-purin-8-yl)phenoxy)ethyl)methanesulfonamide] | 8.20
10 | CC1(Oc2ncnc3c2nc(-c2ccc(OCCOCCC(=O)O)cc2Cl)n3Cc2cccc(Cl)c2)CC1 [Example T303, 3-(2-(3-chloro-4-(9-(3-chlorobenzyl)-6-(1-methylcyclopropoxy)-9H-purin-8-yl)phenoxy)ethoxy)propanoic acid] | 8.10
11 | CC(CCOc1ccc(-c2nc3c(OC4(C)CC4)ncnc3n2Cc2ccccc2C(F)F)c(Cl)c1)C(=O)O (single isomer, unassigned) [Example T414, 4-(3-chloro-4-(9-(2-(difluoromethyl)benzyl)-6-(1-methylcyclopropoxy)-9H-purin-8-yl)phenoxy)-2-methylbutanoic acid] | 8.10
12 | CC1(Oc2ncnc3c2nc(-c2ccc(CC(N)=O)cc2Cl)n3Cc2ccc(C(F)(F)F)nc2)CC1 [Example T38, 2-(3-chloro-4-(6-(1-methylcyclopropoxy)-9-((6-(trifluoromethyl)pyridin-3-yl)methyl)-9H-purin-8-yl)phenyl)acetamide] | 6.90
13 | COc1ccc(F)cc1Cn1c(-c2cccc(OCCC(=O)O)c2Cl)nc2c(OC3(C)CC3)ncnc21 [Example U83, 3-(2-chloro-3-(9-(5-fluoro-2-methoxybenzyl)-6-(1-methylcyclopropoxy)-9H-purin-8-yl)phenoxy)propanoic acid] | 8.40
14 | Cc1ccnc(Cn2c(-c3ccc(CC(=O)NC4CC4)cc3Cl)nc3c(OC4(C)CC4)ncnc32)c1 [Example T310, 2-(3-chloro-4-(6-(1-methylcyclopropoxy)-9-((4-methylpyridin-2-yl)methyl)-9H-purin-8-yl)phenyl)-N-cyclopropylacetamide] | 8.10
15 | Cc1ccccc1Cn1c(-c2ccc(CC(N)=O)cc2Cl)nc2c(OC3(C)CC3)ncnc21 [Example T101, 2-(3-chloro-4-(9-(2-methylbenzyl)-6-(1-methylcyclopropoxy)-9H-purin-8-yl)phenyl)acetamide] | 8.10
16 | Cc1ccnc(Cn2c(-c3ccc(OCC(=O)NCC(F)F)cc3Cl)nc3c(OC4(C)CC4)ncnc32)c1 [Example T166, 2-(3-chloro-4-(6-(1-methylcyclopropoxy)-9-((4-methylpyridin-2-yl)methyl)-9H-purin-8-yl)phenoxy)-N-(2,2-difluoroethyl)acetamide] | 8.10
17 | Cc1ccnc(Cn2c(-c3ccc(OCCN4CCCC4)cc3Cl)nc3c(OC4(C)CC4)ncnc32)c1 [Example T507, 8-(2-chloro-4-(2-(pyrrolidin-1-yl)ethoxy)phenyl)-6-(1-methylcyclopropoxy)-9-((4-methylpyridin-2-yl)methyl)-9H-purine] | 8.20
18 | Cc1cnc(Cn2c(-c3ccc(OC[C@H]4CCCN4)cc3Cl)nc3c(OC4(C)CC4)ncnc32)s1 [Example T139, (R)-2-((8-(2-chloro-4-(pyrrolidin-2-ylmethoxy)phenyl)-6-(1-methylcyclopropoxy)-9H-purin-9-yl)methyl)-5-methylthiazole] | 8.00
19 | Cc1ccnc(Cn2c(-c3ccc(C(=O)N4CCNC(=O)C4)cc3Cl)nc3c(OC4(C)CC4)ncnc32)c1 [Example T287, 4-(3-chloro-4-(6-(1-methylcyclopropoxy)-9-((4-methylpyridin-2-yl)methyl)-9H-purin-8-yl)benzoyl)piperazin-2-one] | 7.30
20 | CC1(Oc2ncnc3c2nc(-c2cccc(OCCC(=O)O)c2Cl)n3Cc2cccc(Cl)c2)CC1 [Example T89, 3-(2-chloro-3-(9-(3-chlorobenzyl)-6-(1-methylcyclopropoxy)-9H-purin-8-yl)phenoxy)propanoic acid] | 8.20
21 | Cc1cnc(Cn2c(-c3ccc(OCCN4CC[C@@H](O)C4)cc3Cl)nc3c(OC4(C)CC4)ncnc32)s1 [Example T245, (R)-1-(2-(3-chloro-4-(6-(1-methylcyclopropoxy)-9-((5-methylthiazol-2-yl)methyl)-9H-purin-8-yl)phenoxy)ethyl)pyrrolidin-3-ol] | 8.20
22 | Cc1ccnc(Cn2c(-c3ccc(N4C[C@H]5C[C@@H]4CN5)cc3Cl)nc3c(OC4(C)CC4)ncnc32)c1 [Example T336, 8-(4-((1R,4R)-2,5-diazabicyclo[2.2.1]heptan-2-yl)-2-chlorophenyl)-6-(1-methylcyclopropoxy)-9-((4-methylpyridin-2-yl)methyl)-9H-purine] | 8.10
23 | CC(CCOc1ccc(-c2nc3c(OC4(C)CC4)ncnc3n2Cc2ccccc2C2CC2)c(Cl)c1)C(=O)O (racemic) [Example T598, 4-(3-chloro-4-(9-(2-cyclopropylbenzyl)-6-(1-methylcyclopropoxy)-9H-purin-8-yl)phenoxy)-2-methylbutanoic acid] | 8.20

pIC50: −log10 of the molar value.
